Yeast mating assay B: variants of the scFv Ab-14

Target: peptide PDVDLGDISGINAS, taken from heptad repeat 2 (HR2) of SARS-CoV-2 spike.

Parent: Ab-14, a human scFv built as VH, the linker GGGGSGGGGSGGGGS, VL. Only the CDRs of the light chain vary.
VH: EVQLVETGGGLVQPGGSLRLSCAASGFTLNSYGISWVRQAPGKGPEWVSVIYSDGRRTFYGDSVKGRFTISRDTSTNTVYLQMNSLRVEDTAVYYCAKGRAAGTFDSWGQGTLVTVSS
VL: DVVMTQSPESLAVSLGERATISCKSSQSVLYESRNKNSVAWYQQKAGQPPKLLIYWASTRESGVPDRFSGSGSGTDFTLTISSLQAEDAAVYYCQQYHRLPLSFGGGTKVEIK

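The starting antibody came from a phage panning campaign against this peptide. This is the validation round: designs drawn from the data on random variants, tested in the same kind of assay. Several design methods are mixed in this list. AlphaSeq pools MATa yeast showing the antibodies with MATalpha yeast showing the peptide. The frequency of each diploid, read from paired DNA barcodes, reflects how well the two displayed proteins bind. Each replicate has its own calibration line, from reference interactions of the BCL2 family. The assay was run in six technical replicates.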

Variants are written as CDR1, CDR2 and CDR3 of the light chain (limits as in the source). Parent: KSSQSVLYESRNKNSVA, WASTRES, QQYHRLPLS.
Affinities are written as log10 Kd with Kd in nM; a lower number is a better binder.
Averages over replicates are reported, and they cover detected replicates only.
"n.d." means that the variant was in the library but no mating with the target was seen in that replicate; the authors take this as a sign of poor binding, and no number exists.
In the paper, a design with two or fewer of six values counts as a poor binder.
Of ten entries with the parent sequence, four were seen in most replicates (averages 0.34 to 2.37), three in one and three in none, so single entries are noisy.
Empty control strains, which show no peptide, gave a signal in 4% of pairings with all light chain designs; the median was 2.64 and 95% of these signals were weaker than 1.59. No background was subtracted.
A sequence measured in both rounds can read differently, since the two assays cover different ranges.

| # | CDR-L1 | CDR-L2 | CDR-L3 | replicates, log10 nM | mean, log10 nM |
|---|---|---|---|---|---|
| 1 | MIHEVMGSVSHKQSSIA | DNSTRES | QQYDRLPLS | n.d. / n.d. / n.d. / n.d. / n.d. / n.d. | n.d. |
| 2 | KISQMVTYESTWHNAIA | QTSEREE | QQYHRLPLS | 0.27 / 0.52 / 0.19 / -0.06 / 0.18 / 0.49 | 0.27 |
| 3 | QLSQSFLYESRNKNSVA | GASTRES | QQYHRLPLS | -0.06 / -0.14 / 0.02 / -0.05 / -0.30 / -0.05 | -0.10 |
| 4 | SIGMTLNQMYEKKNNVA | DLVEREN | QQYHRLPLS | n.d. / 0.68 / n.d. / 2.40 / 0.56 / n.d. | 1.21 |
| 5 | KSSQSYDYEDRNQNSVA | NASQREH | QQYHRLPLS | 0.06 / -0.13 / -0.09 / -0.19 / -0.11 / 0.00 | -0.08 |
| 6 | KLSQSMLYESRNKNSVA | NASTRES | QAYHRLPLS | 0.25 / 0.18 / 0.33 / 0.08 / 0.40 / 0.42 | 0.28 |
| 7 | ALSQSMDMTSRNKNNVA | DLSTREN | QQYHRLPLS | -0.22 / -0.27 / -0.26 / -0.45 / -0.42 / -0.17 | -0.30 |
| 8 | KISQLVNFLGKNKNSVA | QMSTREV | QQYDRLPLS | 0.95 / 1.37 / 0.78 / 0.46 / 0.19 / 0.91 | 0.78 |
| 9 | KISMLQRYQSEAKNNIA | EMSRREE | QQYHRLPLS | -0.07 / 0.02 / 0.07 / 0.03 / -0.19 / 0.24 | 0.02 |
| 10 | KSSMSVVYESRNKNSVA | WASTRES | QQYHREPLS | 2.81 / n.d. / 2.49 / n.d. / 2.30 / 2.96 | 2.64 |
| 11 | QLSSITGHMSMSKNNVA | EMETREN | QQYDRLPLS | 0.30 / -0.31 / -0.06 / -0.19 / -0.11 / 0.60 | 0.04 |
| 12 | TIDDEMPSHGLKWNSIA | GVATVLQ | QQYHRLPLS | 0.96 / 2.10 / 0.61 / 1.09 / 1.10 / 1.21 | 1.18 |
| 13 | SISMSMAFLSRNKNSVA | ENSTRES | QQYHRLPLT | 1.18 / 1.22 / 1.39 / 1.21 / 1.06 / 0.94 | 1.17 |
| 14 | KSSQSVEYESRNKISVA | EASTRES | AQYHRLPLS | n.d. / n.d. / n.d. / n.d. / n.d. / n.d. | n.d. |
| 15 | QMEWHNSGLLEAKNSVA | GVEHRAN | QQYMRLPLE | 0.35 / 0.22 / 0.55 / 0.31 / 0.28 / 0.66 | 0.40 |
| 16 | KWSCSVMLESRNWNAVA | EASTRES | QDYHRLPLS | 1.15 / n.d. / n.d. / 1.55 / 1.47 / 0.85 | 1.26 |
| 17 | KSSQSVLYESRNKNSVA | WASTRES | QQYHILPLS | n.d. / n.d. / n.d. / n.d. / n.d. / n.d. | n.d. |
| 18 | KSDQSHLYGSRNKNSVA | EASERES | QQYHRLPLS | 0.16 / -0.11 / -0.02 / -0.10 / -0.13 / -0.07 | -0.05 |
| 19 | KLPQSMLYESRNKNSVA | NASTRES | QQYHRLPLS | 0.07 / -0.05 / -0.08 / -0.23 / -0.07 / -0.08 | -0.07 |
| 20 | KMQQSVLYESRNKNNVA | HASTRED | QQYHRLPLS | 0.04 / -0.35 / -0.27 / -0.40 / -0.23 / -0.23 | -0.24 |
| 21 | KVSMSVNYLQRNKNSVA | QASTRES | QQYHRLPLS | 1.81 / n.d. / n.d. / n.d. / n.d. / 1.65 | 1.73 |
| 22 | MMSQMFEGLSTSKNPVA | QVSTRME | QQYHRLPLS | 1.99 / 1.22 / 0.88 / 1.51 / 1.87 / 2.31 | 1.63 |
| 23 | KSSQEVLYESRNKNSVA | NASTRES | QQYHRLPLS | 0.24 / 0.17 / 0.01 / 0.29 / 0.20 / 0.29 | 0.20 |
| 24 | MFSQGVMVGWLTRNSVA | NSSTRES | QQYHRLPLS | 1.15 / 1.42 / 0.77 / 0.79 / 0.81 / 0.66 | 0.93 |
| 25 | HVSSMLMAGGGIYNSVA | GNKVLER | QQYMRLPLM | 0.58 / 1.29 / 0.89 / 0.71 / 0.81 / 0.56 | 0.81 |
| 26 | KLSQSWLYESRNKNSVA | NASTRME | QQYHRLPLS | 0.00 / -0.13 / -0.10 / -0.13 / -0.32 / -0.24 | -0.15 |
| 27 | KMQQSVLEESRNKNSVA | WASTRES | QQYHRLHLE | n.d. / n.d. / n.d. / n.d. / n.d. / n.d. | n.d. |
| 28 | QMRLLLENSGHRMNSIA | DETMKPD | QQYVRLPLH | n.d. / 1.10 / 1.06 / n.d. / 3.35 / n.d. | 1.84 |
| 29 | KDSQSVLGEQRNKNSVA | DISTRES | QQYHRLPLS | 0.47 / 0.41 / 0.44 / 0.47 / 0.66 / 0.42 | 0.48 |
| 30 | KSSQSFLYESRNFNSVA | EASTRES | QQYHRLPLS | n.d. / n.d. / n.d. / n.d. / n.d. / n.d. | n.d. |
| 31 | KLGTGVLYESRNKNSVA | GASTRES | QQYHRLPLS | -0.14 / -0.52 / -0.35 / -0.36 / -0.37 / -0.41 | -0.36 |
| 32 | KLTMIMGLEKVSKNNVA | EMETRER | QQYNRLPLA | 0.88 / 1.25 / 1.19 / 0.32 / 1.24 / 0.92 | 0.97 |
| 33 | KSNQSWLYESRNKNSVA | GASKRES | QQYHRLPLS | 0.02 / -0.09 / 0.09 / -0.39 / 0.06 / 0.07 | -0.04 |
| 34 | KFSQQNLYESRMKNPVA | NASQREQ | QQYHRLPLS | 0.89 / 0.81 / 0.69 / 0.80 / 1.00 / 1.27 | 0.91 |
| 35 | KLSQSQLYESRNKNSVA | NASTRMS | QQYHRLPLS | -0.16 / -0.28 / -0.26 / -0.47 / -0.29 / -0.27 | -0.29 |
| 36 | IITQSVMQESRNKSNVA | NTAEREP | QQYDRLPLI | 2.24 / 2.99 / 1.45 / 1.96 / 2.89 / 2.28 | 2.30 |
| 37 | KSMQSWLYESRNKNSVA | HASTREQ | QQYHRLPLS | 1.25 / 0.25 / 1.12 / 0.85 / 0.64 / 0.55 | 0.78 |
| 38 | KLSMSWLYESRNKNSVA | NASTRMS | QQYHRLPLS | -0.03 / 0.02 / -0.05 / -0.10 / -0.13 / 0.08 | -0.03 |
| 39 | KSSQSVLYESNNKNSVA | WASTRES | QQPHRLPLS | 2.41 / 1.10 / 2.54 / 1.76 / 1.58 / 2.30 | 1.95 |
| 40 | KLSQSWLYESANSNSVA | HASQRED | QQYHRLPLS | 0.53 / 0.22 / 0.71 / 0.19 / 0.35 / 0.36 | 0.39 |
| 41 | RITHSQLDYRNPEANIA | HESMKAV | QQYSQLPLT | 0.71 / 0.57 / 0.54 / 0.52 / 0.26 / 0.56 | 0.53 |
| 42 | KVPQSVLYESRNKNSVA | EASQRES | QQYHRLPLS | 0.13 / 0.01 / 0.05 / -0.29 / -0.54 / -0.25 | -0.15 |
| 43 | KISYQYRFEQLSKNNIA | EVVTRLK | QQYHRLPLS | 1.30 / 1.76 / 2.10 / 1.20 / 2.22 / 1.55 | 1.69 |
| 44 | RFEDSISEKEGRHNSIA | EEHMRLD | QYYGRLPLA | 1.65 / 1.34 / 1.48 / 1.32 / 2.03 / 1.69 | 1.58 |
| 45 | KSSQSVLYESENKNSVA | EASTRAS | QSYHFLPLH | 1.70 / 2.17 / 2.34 / 1.52 / 1.57 / 1.77 | 1.85 |
| 46 | KIGHGLTTESRNKNSVA | QTETRVP | QHYHRLPLS | 3.37 / 1.02 / 1.17 / 3.15 / 1.50 / 2.27 | 2.08 |
| 47 | ILSQSVLMGSHLKNSVA | QASTRFD | QQYHRLPLM | 0.82 / 0.35 / 0.22 / 0.32 / 0.07 / 1.00 | 0.46 |

From the list, the first 4 with no signal in any replicate:

{"CDR-L1": "MIHEVMGSVSHKQSSIA", "CDR-L2": "DNSTRES", "CDR-L3": "QQYDRLPLS", "replicates, log10 nM": "n.d. / n.d. / n.d. / n.d. / n.d. / n.d.", "mean, log10 nM": "n.d."}
{"CDR-L1": "KSSQSVEYESRNKISVA", "CDR-L2": "EASTRES", "CDR-L3": "AQYHRLPLS", "replicates, log10 nM": "n.d. / n.d. / n.d. / n.d. / n.d. / n.d.", "mean, log10 nM": "n.d."}
{"CDR-L1": "KSSQSVLYESRNKNSVA", "CDR-L2": "WASTRES", "CDR-L3": "QQYHILPLS", "replicates, log10 nM": "n.d. / n.d. / n.d. / n.d. / n.d. / n.d.", "mean, log10 nM": "n.d."}
{"CDR-L1": "KMQQSVLEESRNKNSVA", "CDR-L2": "WASTRES", "CDR-L3": "QQYHRLHLE", "replicates, log10 nM": "n.d. / n.d. / n.d. / n.d. / n.d. / n.d.", "mean, log10 nM": "n.d."}

Reference: Li et al. 2023, doi:10.1038/s41467-023-39022-2. File: FLAb, binding data.